Assay results published in patent US10435371B2, “Multifunctional aminoquinoline therapeutic agent” (LOHOCLA RESEARCH CORPORATION, priority 2014, dated 2019).

By UniProt entry, the sequences of proteins in these tests, tags left out.
UniProt P21554, whole entry: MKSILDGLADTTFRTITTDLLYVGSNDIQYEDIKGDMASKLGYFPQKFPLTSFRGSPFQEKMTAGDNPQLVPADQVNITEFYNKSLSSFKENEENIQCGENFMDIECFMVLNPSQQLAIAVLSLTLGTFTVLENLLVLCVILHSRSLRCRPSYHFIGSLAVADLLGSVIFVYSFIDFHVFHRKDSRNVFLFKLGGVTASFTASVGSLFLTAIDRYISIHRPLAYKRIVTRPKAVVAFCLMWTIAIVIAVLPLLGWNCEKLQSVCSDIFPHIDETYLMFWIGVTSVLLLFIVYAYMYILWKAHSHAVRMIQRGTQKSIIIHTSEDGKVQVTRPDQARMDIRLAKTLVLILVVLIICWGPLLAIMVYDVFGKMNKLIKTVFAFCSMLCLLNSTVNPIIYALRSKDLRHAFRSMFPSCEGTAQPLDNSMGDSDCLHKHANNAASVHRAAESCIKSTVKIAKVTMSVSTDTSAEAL

Biological target: T1, cannabinoid CB1 receptor (Homo sapiens, UniProt P21554)
T1 construct: expressed in transfected cells; host or cells: HeLa (ATCC), calcium phosphate transient transfection
Assay: cAMP accumulation, HeLa cells transfected with CB1 receptor, D1 receptor and AC7
Format: cell-based
Conditions: AM251 10 μM with DA and DCUK-OEt

SMILES: Cc1c(C(=O)NN2CCCCC2)nn(-c2ccc(Cl)cc2Cl)c1-c1ccc(I)cc1 [AM251, reference compound]
- Effect of CB1 receptor antagonist on the cAMP increase: eliminated the DCUK-OEt effect
